# PubChem BioAssay (EPA / NIEHS)
# The chains behind the UniProt entries cited, without tags or fusion partners.
# UniProt P01375, whole entry, looked up: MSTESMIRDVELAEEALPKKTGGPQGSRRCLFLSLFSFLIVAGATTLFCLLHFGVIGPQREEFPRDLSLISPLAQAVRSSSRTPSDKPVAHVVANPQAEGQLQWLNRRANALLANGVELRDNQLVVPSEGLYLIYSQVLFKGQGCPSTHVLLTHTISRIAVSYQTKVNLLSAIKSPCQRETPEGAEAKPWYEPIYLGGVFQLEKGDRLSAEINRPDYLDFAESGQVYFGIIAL
# “And” between values parts separate entries of the source, which are not always exact repeats. Identical values can stand only once. The entries are a selection whose mix differs from that of the whole data set. A structure can be active in one record and inactive in another. The source made the active and inactive calls. How the source made its calls: active means hit-call score of the fitted dose curve at least 0.9, where 1 is the maximum; inactive means score below 0.9.
# Tests used:
# [1] = BSK_LPS_SRB: Viability Assessment in the BioMAP Diversity Plus: LPS Assay (AID 2283079); conditions: primary human HUVEC with PBMC;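 further: total protein by sulforhodamine B absorbance as a cytotoxicity measure; measured one day after compound addition; fitted in both directions against DMSO so loss or gain of signal counts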
# Method in brief: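 Human umbilical vein endothelial cells co-cultured with PBMC (LPS system) were dosed for 24 h. Total protein was stained with 0.1% sulforhodamine B after 10% TCA fixation, read at 560 nm, and fitted bidirectionally against DMSO baseline.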
# [2] = read-out: Interleukin-1 alpha (IL1a), IL1A (gene 3552); experiment: BSK_LPS_IL1a: BioMAP Diversity Plus: LPS Assay for Interleukin-1 alpha (IL1a) Biomarker Activity (AID 2283080); conditions: actives raise or lower the signal; primary human HUVEC with PBMC
# Method in brief: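 Human umbilical vein endothelial cells co-cultured with peripheral blood mononuclear cells were LPS-stimulated and exposed to test chemicals for 24 h. IL-1 alpha was quantified by ELISA, with bidirectional curve fitting against DMSO as the negative control and baseline.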
# [3] = read-out: Monocyte Chemoattractant Protein-1 (MCP1), CCL2 (gene 6347); experiment: BSK_LPS_MCP1: BioMAP Diversity Plus: LPS Assay for Monocyte Chemoattractant Protein-1 (MCP1) Biomarker Activity (AID 2283081); conditions: actives raise or lower the signal; primary human HUVEC with PBMC;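 on AC50: co-culture stimulated with LPS; secreted MCP-1 protein quantified by ELISA in culture supernatant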
# Method in brief: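 HUVEC plus PBMC co-culture (human primary cells, LPS system) exposed to test chemical for 24 h; MCP-1 measured by ELISA. Bidirectional curve fitting against DMSO baseline; parallel SRB total-protein staining flags overt cytotoxicity.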
# [4] = BSK_LPS_PGE2: BioMAP Diversity Plus: LPS Assay for Prostaglandin E2 (PGE2) Biomarker Activity (AID 2283082); conditions: actives raise or lower the signal; primary human HUVEC with PBMC;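 on AC50: secreted prostaglandin E2 measured by ELISA in LPS-stimulated co-culture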
# Experimental: BSK_LPS is a cell-based, multiplexed-readout assay that uses umbilical vein endothelium and peripheral blood mononuclear cells, a human vascular primary cell co-culture, with measurements taken at 24 hours after chemical dosing in a 96-well plate.BSK_LPS_PGE2 is an assay component measured in the BSK_LPS assay. It measures PGE2 antibody related to regulation of gene expression using ELISA technology.Data from the assay component BSK_LPS_PGE2 was analyzed into 1 assay endpoint. This assay endpoint, BSK_LPS_PGE2, was analyzed with bidirectional fitting relative to DMSO as the negative control and baseline of activity. Using a type of binding reporter, gain or loss-of-signal activity can be used to understand changes in the signaling as they relate to the gene PTGER2. Furthermore, this assay endpoint can be referred to as a primary readout, because this assay has produced multiple assay endpoints where this one serves a signaling function. To generalize the intended target to other relatable targets, this assay endpoint is annotated to the gpcr intended target family, where the subfamily is rhodopsin-like receptor.
# The levels of cell surface (or secreted, indicated by the prefix "s") biomarker endpoints were measured by ELISA. Overt cytotoxicity to cells in confluent adherent cultures (all systems other than the BT system) was assessed by measuring total protein levels using sulforhodamine B (SRB) staining in parallel cultures at the time of biomarker measurements, indicated as SRB endpoints. For proliferation assays for adherent cell types, individual cell types are cultured at sub-confluence and relative cell numbers quantified by SRB staining at time points optimized for each system (48 h: 3C and CASM3C systems; 72 h: BT and HDF3CGF systems; 96 h: SAg system). SRB was performed by staining cells with 0.1% SRB after fixation with 10% TCA and reading wells at 560 nm.Viability and proliferation of PBMC (T cells) was quantified by Alamar Blue reduction for the SAg and BT systems. For PBMC viability (referred to as PBMC Cytotoxicity within the assay endpoint names), cells were plated (75,000/well in a 96-well plate) and then chemical samples added for 1 h before addition of activators, SEB and TSST-1 (20 ng/mL final concentration each). Cells were incubated for 90 h. Then, Alamar Blue (20 uL/well) (Invitrogen, Cat DAL1100) was added for 6 h, and the plates were read with a fluorescence microplate reader at 546/580 nm (excitation/emission). For PBMC proliferation, cells were plated and activated as above but incubated for only 16 h prior to addition of Alamar Blue. Plates were read after 6 h.
# [5] = read-out: Macrophage colony-stimulating factor (MCSF), CSF1 (gene 1435); experiment: BSK_LPS_MCSF: BioMAP Diversity Plus: LPS Assay for Macrophage colony-stimulating factor (MCSF) Biomarker Activity (AID 2283083); conditions: actives raise or lower the signal; primary human HUVEC with PBMC
# Method in brief: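 Human umbilical vein endothelial cells co-cultured with peripheral blood mononuclear cells were exposed to compound for 24 h. M-CSF levels were measured by ELISA, and bidirectional curve fitting used DMSO as the negative control and baseline.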
# [6] = read-out: Tissue Factor, F3 (gene 2152); experiment: BSK_LPS_TissueFactor: BioMAP Diversity Plus: LPS Assay for Tissue Factor Biomarker Activity (AID 2283084); conditions: actives raise or lower the signal; primary human HUVEC with PBMC
# Method in brief: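 Human umbilical vein endothelial cells co-cultured with peripheral blood mononuclear cells were dosed and stimulated with LPS. Cell-surface CD142 was quantified by ELISA at 24 h. Activity was fitted bidirectionally against DMSO baseline.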
# [7] = read-out: Tumor necrosis factor (Homo sapiens) (UniProt P01375); experiment: BSK_LPS_TNFa: BioMAP Diversity Plus: LPS Assay for Tumour Necrosis Factor alpha (TNFa) Biomarker Activity (AID 2283085); conditions: actives raise or lower the signal; primary human HUVEC with PBMC;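 on AC50: TNFa protein level quantified by ELISA in the co-culture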
# Method in brief: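 TNFa was quantified by ELISA in LPS-activated co-cultures of human endothelial cells and PBMC, 24 h post-dosing. Both increases and decreases versus DMSO were fitted.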
# [8] = read-out: Vascular cell adhesion molecule 1 (VCAM1), VCAM1 (gene 7412); experiment: BSK_LPS_VCAM1: BioMAP Diversity Plus: LPS Assay for Vascular cell adhesion molecule 1 (VCAM1) Biomarker Activity (AID 2283086); conditions: actives raise or lower the signal; primary human HUVEC with PBMC
# Method in brief: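 VCAM-1 quantified by ELISA in an LPS-activated co-culture of human endothelial cells and peripheral blood mononuclear cells, read 24 h post-treatment. Fitted in both directions versus DMSO; parallel SRB staining flags overt cytotoxicity.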
# CD38, CD38 (gene 952) = experiment: BSK_SAg_CD38: BioMAP Diversity Plus: SAg Assay for CD38 Biomarker Activity (AID 2283087); conditions: actives raise or lower the signal; primary human HUVEC with PBMC
# Method in brief: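 CD38 quantified by ELISA (fluorescence) in a superantigen-activated endothelial cell–PBMC co-culture at 24 h post-dose. Activity fitted in both directions relative to DMSO; parallel SRB and Alamar Blue cytotoxicity read-outs.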
# CD40, CD40 (gene 958) = experiment: BSK_SAg_CD40: BioMAP Diversity Plus: SAg Assay for CD40 Biomarker Activity (AID 2283088); conditions: actives raise or lower the signal; primary human HUVEC with PBMC
# Method in brief: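 Human umbilical vein endothelial cells co-cultured with PBMC; CD40 levels measured by ELISA with fluorescence read-out 24 h after chemical dosing. Gain or loss of signal fitted bidirectionally against DMSO baseline.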
structure (smiles),measurement,setting,value
O=[N+]([O-])c1ccc([N+](=O)[O-])cc1,outcome,[1],inactive
same,AC50,[2],active: 2.9 µM
same,outcome,[3],inactive
same,outcome,[4],inactive
same,outcome,[5],inactive
same,outcome,[6],inactive
same,AC50,[7],active: 6.61 µM
same,AC50,[8],active: 7.8 µM
same,AC50,"CD38, CD38 (gene 952)",active: 10.5 µM
same,outcome,"CD40, CD40 (gene 958)",inactive
O=C(Cl)Oc1ccccc1,outcome,[1],inactive
same,outcome,[2],inactive
same,outcome,[3],inactive
same,outcome,[4],inactive
same,outcome,[5],inactive
same,outcome,[6],inactive
same,outcome,[7],inactive
same,outcome,[8],inactive
same,outcome,"CD38, CD38 (gene 952)",inactive
same,outcome,"CD40, CD40 (gene 958)",inactive
Cc1cc([N+](=O)[O-])cc([N+](=O)[O-])c1O,outcome,[1],inactive
same,outcome,[2],inactive
same,AC50,[3],active: 20 µM
same,outcome,[4],inactive
same,outcome,[5],inactive
same,outcome,[6],inactive
same,outcome,[7],inactive
same,outcome,[8],inactive
same,AC50,"CD40, CD40 (gene 958)",active: 20 µM
O=C1C2CC=CCC2C(=O)N1SC(Cl)(Cl)C(Cl)Cl (stereo not drawn),AC50,[3],active: 14 µM
same,AC50,[7],active: 6.06 µM
same,AC50,"CD38, CD38 (gene 952)",active: 8.23 µM
same,AC50,"CD40, CD40 (gene 958)",active: 12.6 µM
CC(C)OP(=S)(OC(C)C)SCCNS(=O)(=O)c1ccccc1,AC50,[1],active: 33.8 µM and active: 27.2 µM and active: 31.1 µM
same,AC50,[2],active: 32.3 µM and active: 32 µM and active: 32.8 µM
same,AC50,[3],active: 36.1 µM and active: 36 µM and active: 36.4 µM
same,AC50,[4],active: 33.3 µM
same,outcome,[4],inactive
same,AC50,[7],active: 36.5 µM and active: 32.8 µM
same,outcome,[7],inactive
same,AC50,[8],active: 31.6 µM and active: 29.3 µM and active: 34.2 µM
same,AC50,"CD38, CD38 (gene 952)",active: 34.3 µM and active: 32.6 µM and active: 37.7 µM
same,AC50,"CD40, CD40 (gene 958)",active: 30.3 µM and active: 30.1 µM and active: 33.1 µM
CN(C(=O)Cc1cccc2occc12)[C@H]1CC[C@@]2(CCCO2)C[C@@H]1N1CCCC1,outcome,[1],inactive
same,outcome,[2],inactive
same,outcome,[3],inactive
same,outcome,[4],inactive
same,outcome,[5],inactive
same,outcome,[6],inactive
same,outcome,[7],inactive
same,outcome,[8],inactive
same,outcome,"CD38, CD38 (gene 952)",inactive
same,outcome,"CD40, CD40 (gene 958)",inactive
